“And” between values parts separate entries of the source, which are not always exact repeats. Equal values may be shown once.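 48-hour exposure; five concentrations; linearly interpolated endpoints. GI50: concentration for 50% inhibition of growth. TGI denotes the concentration required for complete inhibition of growth.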
Legend:
Experiment in all cases: NCI-60 cell line screen, 48 h
HS 578T breast = test system: HS 578T breast
BT-549 breast = test system: BT-549 breast
HOP-62 NSCLC = test system: HOP-62 NSCLC
MCF7 breast = test system: MCF7 breast
KM12 colon = test system: KM12 colon
COLO 205 colon = test system: COLO 205 colon
SK-MEL-28 melanoma = test system: SK-MEL-28 melanoma
786-0 renal = test system: 786-0 renal
HCT-116 colon = test system: HCT-116 colon
M14 melanoma = test system: M14 melanoma
HOP-92 NSCLC = test system: HOP-92 NSCLC
DU-145 prostate = test system: DU-145 prostate
CAKI-1 renal = test system: CAKI-1 renal
A498 renal = test system: A498 renal
SK-MEL-5 melanoma = test system: SK-MEL-5 melanoma
OVCAR-5 ovarian = test system: OVCAR-5 ovarian
NCI-H522 lung = test system: NCI-H522 lung
HCT-15 colon = test system: HCT-15 colon
EKVX NSCLC = test system: EKVX NSCLC
SK-OV-3 ovarian = test system: SK-OV-3 ovarian
MDA-N = test system: MDA-N
OVCAR-8 ovarian = test system: OVCAR-8 ovarian
T-47D breast = test system: T-47D breast
MALME-3M melanoma = test system: MALME-3M melanoma
MDA-MB-231 breast = test system: MDA-MB-231 breast
NCI-H23 lung = test system: NCI-H23 lung
K-562 leukemia = test system: K-562 leukemia
IGROV1 ovarian = test system: IGROV1 ovarian
HCC-2998 colon = test system: HCC-2998 colon
SNB-75 CNS = test system: SNB-75 CNS
CCRF-CEM leukemia = test system: CCRF-CEM leukemia
SF-539 CNS = test system: SF-539 CNS
HL-60(TB) leukemia = test system: HL-60(TB) leukemia
UO-31 renal = test system: UO-31 renal
OVCAR-4 ovarian = test system: OVCAR-4 ovarian
PC-3 prostate = test system: PC-3 prostate
NCI/ADR-RES ovarian = test system: NCI/ADR-RES ovarian
MDA-MB-435 = test system: MDA-MB-435
SF-295 CNS = test system: SF-295 CNS
OVCAR-3 ovarian = test system: OVCAR-3 ovarian
SR leukemia = test system: SR leukemia
UACC-62 melanoma = test system: UACC-62 melanoma
UACC-257 melanoma = test system: UACC-257 melanoma
U251 CNS = test system: U251 CNS
LOX IMVI melanoma = test system: LOX IMVI melanoma
SNB-19 CNS = test system: SNB-19 CNS
SW-620 colon = test system: SW-620 colon
SF-268 CNS = test system: SF-268 CNS
NCI-H226 lung = test system: NCI-H226 lung
SK-MEL-2 melanoma = test system: SK-MEL-2 melanoma
ACHN renal = test system: ACHN renal
NCI-H460 lung = test system: NCI-H460 lung
NCI-H322M lung = test system: NCI-H322M lung
RXF 393 renal = test system: RXF 393 renal
A549 NSCLC = test system: A549 NSCLC
RPMI-8226 leukemia = test system: RPMI-8226 leukemia
MOLT-4 leukemia = test system: MOLT-4 leukemia
HT29 colon = test system: HT29 colon
TK-10 renal = test system: TK-10 renal
SN12C renal = test system: SN12C renal

C[As](C)(=O)O
GI50 (HS 578T breast): > 100 µM
GI50 (BT-549 breast): > 100 µM
GI50 (HOP-62 NSCLC): > 100 µM
GI50 (MCF7 breast): > 100 µM
GI50 (KM12 colon): > 100 µM
GI50 (COLO 205 colon): > 100 µM
GI50 (SK-MEL-28 melanoma): > 100 µM
GI50 (786-0 renal): > 100 µM
GI50 (HCT-116 colon): > 100 µM
GI50 (M14 melanoma): > 100 µM
GI50 (HOP-92 NSCLC): > 100 µM
GI50 (DU-145 prostate): > 100 µM
GI50 (CAKI-1 renal): > 100 µM
GI50 (A498 renal): > 100 µM
GI50 (SK-MEL-5 melanoma): > 100 µM
GI50 (OVCAR-5 ovarian): > 100 µM
GI50 (NCI-H522 lung): > 100 µM
GI50 (HCT-15 colon): > 100 µM
GI50 (EKVX NSCLC): > 100 µM
GI50 (SK-OV-3 ovarian): > 100 µM
GI50 (MDA-N): > 100 µM
GI50 (OVCAR-8 ovarian): > 100 µM
GI50 (T-47D breast): > 100 µM
GI50 (MALME-3M melanoma): > 100 µM and 29.1 µM
GI50 (MDA-MB-231 breast): > 100 µM
GI50 (NCI-H23 lung): > 100 µM
GI50 (K-562 leukemia): > 100 µM
GI50 (IGROV1 ovarian): > 100 µM
GI50 (HCC-2998 colon): > 100 µM
TGI (HCC-2998 colon): > 100 µM
GI50 (SNB-75 CNS): > 100 µM
GI50 (CCRF-CEM leukemia): > 100 µM
TGI (CCRF-CEM leukemia): > 100 µM
GI50 (SF-539 CNS): > 100 µM
TGI (HL-60(TB) leukemia): > 100 µM
GI50 (UO-31 renal): > 100 µM
GI50 (OVCAR-4 ovarian): > 100 µM
TGI (OVCAR-4 ovarian): > 100 µM
GI50 (PC-3 prostate): > 100 µM
GI50 (NCI/ADR-RES ovarian): > 100 µM
GI50 (MDA-MB-435): > 100 µM
GI50 (SF-295 CNS): > 100 µM
GI50 (OVCAR-3 ovarian): > 100 µM
GI50 (SR leukemia): > 100 µM
GI50 (UACC-62 melanoma): > 100 µM
GI50 (UACC-257 melanoma): > 100 µM
GI50 (U251 CNS): > 100 µM
GI50 (LOX IMVI melanoma): > 100 µM
GI50 (SNB-19 CNS): > 100 µM
GI50 (SW-620 colon): > 100 µM
GI50 (SF-268 CNS): > 100 µM
GI50 (NCI-H226 lung): > 100 µM
TGI (NCI-H226 lung): > 100 µM
GI50 (SK-MEL-2 melanoma): > 100 µM
GI50 (ACHN renal): > 100 µM
GI50 (NCI-H460 lung): > 100 µM
GI50 (NCI-H322M lung): > 100 µM
GI50 (RXF 393 renal): > 100 µM
GI50 (A549 NSCLC): > 100 µM
GI50 (RPMI-8226 leukemia): > 100 µM
GI50 (MOLT-4 leukemia): > 100 µM
GI50 (HT29 colon): > 100 µM
GI50 (TK-10 renal): > 100 µM
GI50 (SN12C renal): > 100 µM

Reference: PubChem BioAssay (NCI)
